# Experimental data as given in patent publication US20140073556A1 (published 2014).
# T1: recombinant protein comprising the whole extracellular part of IL1RI (UniProt P14778 18-336)
# T1 chain: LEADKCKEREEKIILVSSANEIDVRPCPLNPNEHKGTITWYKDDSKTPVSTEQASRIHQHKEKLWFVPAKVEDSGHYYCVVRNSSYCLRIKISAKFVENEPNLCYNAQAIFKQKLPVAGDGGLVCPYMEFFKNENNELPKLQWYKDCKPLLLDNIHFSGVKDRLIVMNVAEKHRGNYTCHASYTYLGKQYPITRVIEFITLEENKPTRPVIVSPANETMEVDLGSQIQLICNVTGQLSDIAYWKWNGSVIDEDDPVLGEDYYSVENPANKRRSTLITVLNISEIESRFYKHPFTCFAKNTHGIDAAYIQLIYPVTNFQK
# Molecular target: T1, recombinant protein comprising the …
# Test: SPR
binder,measurement,value
IL1Ra protein (IL-1 receptor antagonist protein) (ligand) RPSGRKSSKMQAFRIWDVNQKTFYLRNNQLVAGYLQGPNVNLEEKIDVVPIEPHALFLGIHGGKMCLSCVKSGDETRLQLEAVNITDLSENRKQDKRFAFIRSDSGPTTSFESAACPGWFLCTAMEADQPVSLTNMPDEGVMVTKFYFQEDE,Kd,0.048 µM
